Here are results for one molecule from patent US7217735B1, “Methods and compositions for enhancing delivery of therapeutic agents to tissues” (priority 1999, dated 2007).

Each structure is given as a SMILES string. A value given as a limit tells only on which side of the number the result lay.

This series concerns patient tumors (head and neck, ovarian) and xenograft tumor. Put plainly: Paclitaxel uptake in tumor histocultures, all three tumor types.

On to `CC(=O)O[C@H]1C(=O)[C@@]2(C)[C@H]([C@H](OC(=O)c3ccccc3)[C@]3(O)C[C@H](OC(=O)[C@H](O)[C@@H](NC(=O)c4ccccc4)c4ccccc4)C(C)=C1C3(C)C)[C@]1(OC(C)=O)CO[C@@H]1C[C@@H]2O` [paclitaxel], for which the “dose accounted for (mass balance)” value is on record as “about 90%”. Also, the “decrease of drug concentration in the medium” value (during uptake to steady state) was “about 25%”. For the setting “in the next 24 to 48 hr”, the “increase in tumor concentration after pseudo steady state” value is under 5%.
